The values below come from patent publication US20170000702A1, “PERSONAL CARE COMPOSITIONS COMPRISING A SENSATE” (The Gillette Park, priority 2015, published 2017).

By UniProt entry, the sequences of proteins in these tests, tags left out.
UniProt Q8NER1, whole entry: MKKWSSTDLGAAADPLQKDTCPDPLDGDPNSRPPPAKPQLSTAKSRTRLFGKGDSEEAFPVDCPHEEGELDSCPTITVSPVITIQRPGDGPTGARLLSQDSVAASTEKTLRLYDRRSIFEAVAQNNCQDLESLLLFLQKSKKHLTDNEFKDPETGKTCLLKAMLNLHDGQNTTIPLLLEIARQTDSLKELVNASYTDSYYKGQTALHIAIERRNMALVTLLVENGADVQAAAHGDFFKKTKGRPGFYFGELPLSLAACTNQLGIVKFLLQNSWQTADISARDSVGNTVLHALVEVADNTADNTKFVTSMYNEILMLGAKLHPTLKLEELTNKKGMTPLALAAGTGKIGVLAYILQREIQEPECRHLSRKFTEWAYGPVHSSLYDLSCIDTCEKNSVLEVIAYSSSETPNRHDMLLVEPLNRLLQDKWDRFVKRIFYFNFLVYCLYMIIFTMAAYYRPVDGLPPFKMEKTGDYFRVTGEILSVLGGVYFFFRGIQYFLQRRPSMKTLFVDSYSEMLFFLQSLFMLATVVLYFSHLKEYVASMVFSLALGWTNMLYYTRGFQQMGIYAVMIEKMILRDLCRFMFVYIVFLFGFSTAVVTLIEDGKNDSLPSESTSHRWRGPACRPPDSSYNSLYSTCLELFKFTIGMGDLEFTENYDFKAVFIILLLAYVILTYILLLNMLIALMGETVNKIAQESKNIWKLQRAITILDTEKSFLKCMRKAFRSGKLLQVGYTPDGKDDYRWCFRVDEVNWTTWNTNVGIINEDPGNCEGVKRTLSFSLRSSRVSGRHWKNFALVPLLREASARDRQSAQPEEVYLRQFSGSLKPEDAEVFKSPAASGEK
UniProt O75762, whole entry: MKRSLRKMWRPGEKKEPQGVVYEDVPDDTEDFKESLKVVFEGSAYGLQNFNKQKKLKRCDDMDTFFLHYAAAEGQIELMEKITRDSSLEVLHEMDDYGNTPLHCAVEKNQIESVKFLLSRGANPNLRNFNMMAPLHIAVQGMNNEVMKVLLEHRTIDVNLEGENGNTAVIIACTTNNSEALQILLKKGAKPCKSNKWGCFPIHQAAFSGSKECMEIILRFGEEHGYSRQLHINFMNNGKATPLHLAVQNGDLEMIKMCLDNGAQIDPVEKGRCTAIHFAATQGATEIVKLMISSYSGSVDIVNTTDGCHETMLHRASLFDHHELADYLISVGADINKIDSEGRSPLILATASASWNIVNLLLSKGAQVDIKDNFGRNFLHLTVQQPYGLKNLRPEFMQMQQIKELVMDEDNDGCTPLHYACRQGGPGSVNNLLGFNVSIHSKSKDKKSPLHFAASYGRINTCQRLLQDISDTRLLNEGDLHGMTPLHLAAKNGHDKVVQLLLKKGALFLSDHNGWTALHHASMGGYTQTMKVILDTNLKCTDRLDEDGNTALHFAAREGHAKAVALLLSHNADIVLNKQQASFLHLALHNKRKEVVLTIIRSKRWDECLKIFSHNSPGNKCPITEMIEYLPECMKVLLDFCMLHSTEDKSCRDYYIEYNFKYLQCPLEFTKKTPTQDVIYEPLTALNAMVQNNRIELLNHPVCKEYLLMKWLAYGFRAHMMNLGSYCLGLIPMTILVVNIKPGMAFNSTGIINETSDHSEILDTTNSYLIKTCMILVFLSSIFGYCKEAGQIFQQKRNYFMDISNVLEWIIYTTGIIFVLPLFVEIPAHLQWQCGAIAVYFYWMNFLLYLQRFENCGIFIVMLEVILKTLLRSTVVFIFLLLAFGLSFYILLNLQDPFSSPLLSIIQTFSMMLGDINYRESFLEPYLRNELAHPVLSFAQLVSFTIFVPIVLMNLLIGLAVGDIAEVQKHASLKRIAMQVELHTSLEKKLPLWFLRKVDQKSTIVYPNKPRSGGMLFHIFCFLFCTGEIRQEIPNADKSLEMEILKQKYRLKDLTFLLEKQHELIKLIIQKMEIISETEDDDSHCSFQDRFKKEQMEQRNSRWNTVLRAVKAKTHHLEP

Molecules are shown by their SMILES.

Type in all cases: cell-based
For assay [1], the target named is T1, human TRPV1 (Homo sapiens, UniProt Q8NER1).
T1 construct: expressed in transfected cells; host or cells: HEK-293
As to the kind of experiment: Pre-Incubation Test Method, TRPV1 (FLIPR intracellular calcium, capsaicin activator). As for the experimental part: (§1) The Pre-Incubation Test and Direct Addition Test Methods, as defined herein, can be conducted on either TRPV1 or TRPA1 receptors.
(§2) Pre-Incubation Test Method: First, the intracellular calcium ion (Ca^+2) levels in TRPV1 and TRPA1 receptors is measured. […] Cells are detached with addition of 10 ml of PBS (phosphate buffered saline) by hand shaking gently. Cells are transferred to a 50 ml tube and centrifuged at 850 rpm for 3 minutes to remove PBS. After centrifugation, a pellet of cells is formed in the bottom of the tube separating them from the supernatant solution. […] Fluo-4 is a fluorescent dye used for quantifying cellular Ca^2+ concentrations in the 100 nM to 1 microM range. […]
(§3) The pellet cells are re-suspended in 10 ml assay buffer and 90 μl aliquots (˜50,000 cells) per well delivered to a 96-well assay plate containing 10 μl of test compounds (1 mM in assay buffer, final concentration 100 μM) or buffer control and incubated at room temperature for 30 minutes. […] Then 20 μl of the activators [1.8 μM Capsaicin (final concentration 300 nM) for TRPV1 or 300 μM AITC (final concentration 50 μM) for TRPA1 is added by FLIPR automatically and fluorescence recorded immediately.
(A change in cytosolic calcium serves as a functional read-out for many receptors and channels.)

Assay [2] concerns the target T2, human TRPA1 (Homo sapiens, UniProt O75762).
T2 construct: expressed in transfected cells; host or cells: HEK-293
As to the kind of experiment: Direct Addition Test Method, TRPA1 (FLIPR intracellular calcium). As for the experimental part:
as §1, §2
(§4) The pellet cells are re-suspended in 10 ml assay buffer and 90 μl aliquots (˜50,000 cells) per well delivered to a 96-well assay plate containing 10 μl of test compounds (1 mM in assay buffer, final concentration 100 μM) or buffer control and incubated at room temperature for 30 minutes. […] Then 20 μl of the activators [1.8 μM Capsaicin (final concentration 300 nM) for TRPV1 or 300 μM AITC (final concentration 50 μM) for TRPA1 is added by FLIPR automatically and fluorescence recorded immediately. […]

Assay [3] concerns the target T1, human TRPV1. Put plainly: Direct Addition Test Method, TRPV1 (FLIPR intracellular calcium). As for the experimental part:
as §1, §2, §4

In assay [4] the target is T2, human TRPA1. Put plainly: Pre-Incubation Test Method, TRPA1 (FLIPR intracellular calcium, AITC activator). Here is the method:
as §1, §2, §3

For the molecule `CC(=O)CCC=C(C)C` [6-Methyl-5-hepten-2-one, 6-methyl-5-hepten-2-one], the “Pre-incubation % Regulation” value is on record as −3.18% on human TRPV1 [1] and −1.44% on human TRPA1 [4]. The “Direct Addition % Regulation” value at human TRPA1 [2] is given as 0.49%; at human TRPV1 [3], −0.3%.
